What was measured:
[1] = Antimicrobial activity against erythromycin-nonsusceptible Streptococcus Group C clinical isolates assessed as resistant isolates by broth microdilution method; type: functional, Streptococcus sp. 'group C'
[2] = test system: Streptococcus; test: Antimicrobial activity against erythromycin-susceptible Streptococcus Group F clinical isolates assessed as percent susceptible isolates by broth microdilution method; type: functional
[3] = test system: Streptococcus; test: Antimicrobial activity against Streptococcus Group F clinical isolates assessed as percent susceptible isolates by broth microdilution method; type: functional
[4] = Antimicrobial activity against Streptococcus Group C clinical isolates assessed as percent susceptible isolates by broth microdilution method; type: functional, Streptococcus sp. 'group C'
[5] = test system: Streptococcus; test: Antimicrobial activity against erythromycin-nonsusceptible Streptococcus Group F clinical isolates assessed as percent susceptible isolates by broth microdilution method; type: functional
[6] = test system: Streptococcus; test: Antimicrobial activity against erythromycin-nonsusceptible Streptococcus Group F clinical isolates assessed as resistant isolates by broth microdilution method; type: functional
[7] = Antimicrobial activity against erythromycin-nonsusceptible Streptococcus Group G clinical isolates assessed as resistant isolates by broth microdilution method; type: functional, Streptococcus sp. 'group G'
[8] = Antimicrobial activity against Streptococcus Group G clinical isolates assessed as percent susceptible isolates by broth microdilution method; type: functional, Streptococcus sp. 'group G'
[9] = Antimicrobial activity against erythromycin-nonsusceptible Streptococcus Group C clinical isolates assessed as percent susceptible isolates by broth microdilution method; type: functional, Streptococcus sp. 'group C'
[10] = Antimicrobial activity against erythromycin-nonsusceptible Streptococcus Group G clinical isolates assessed as percent susceptible isolates by broth microdilution method; type: functional, Streptococcus sp. 'group G'
[11] = test system: Streptococcus; test: Antimicrobial activity against erythromycin-susceptible Streptococcus Group F clinical isolates assessed as resistant isolates by broth microdilution method; type: functional

Compound | Activity [1] [%] | Activity [2] [%] | Activity [3] [%] | Activity [4] [%] | Activity [5] [%] | Activity [6] [%] | Activity [7] [%] | Activity [8] [%] | Activity [9] [%] | Activity [10] [%] | Activity [11] [%]
CC[C@H]1OC(=O)[C@H](C)[C@@H](O[C@H]2C[C@@](C)(OC)[C@@H](O)[C@H](C)O2)[C@H](C)[C@@H](O[C@@H]2O[C@H](C)C[C@H](N(C)C)[C@H]2O)[C@](C)(O)C[C@@H](C)C(=O)[C@H](C)[C@@H](O)[C@]1(C)O [ERYTHROMYCIN] | 82.4 | 100 | 79.8 | 79.8 | 0 | 82.4 | 82.4 | 79.8 | – | – | –
C[C@H]1COc2c(N3CCN(C)CC3)c(F)cc3c(=O)c(C(=O)O)cn1c23.C[C@H]1COc2c(N3CCN(C)CC3)c(F)cc3c(=O)c(C(=O)O)cn1c23.O [LEVOFLOXACIN] | – | 100 | 98.8 | 98.8 | 94.1 | 0 | – | 98.8 | 94.1 | 94.1 | 0

From ChEMBL document CHEMBL1649268, “Comparative in vitro activity profile of oritavancin against recent gram-positive clinical isolates” (2009)
